In PubChem BioAssay AID1259374 (The Scripps Research Institute Molecular Screening Center, 2018) one finds inhibition data, which are given here for 59 molecules.

Protein sequences, listed by entry. Tags and fused reporters are not part of them. Lines headed by an entry give the natural chain unless they say otherwise; changes in a name come on top.
UniProt O75030: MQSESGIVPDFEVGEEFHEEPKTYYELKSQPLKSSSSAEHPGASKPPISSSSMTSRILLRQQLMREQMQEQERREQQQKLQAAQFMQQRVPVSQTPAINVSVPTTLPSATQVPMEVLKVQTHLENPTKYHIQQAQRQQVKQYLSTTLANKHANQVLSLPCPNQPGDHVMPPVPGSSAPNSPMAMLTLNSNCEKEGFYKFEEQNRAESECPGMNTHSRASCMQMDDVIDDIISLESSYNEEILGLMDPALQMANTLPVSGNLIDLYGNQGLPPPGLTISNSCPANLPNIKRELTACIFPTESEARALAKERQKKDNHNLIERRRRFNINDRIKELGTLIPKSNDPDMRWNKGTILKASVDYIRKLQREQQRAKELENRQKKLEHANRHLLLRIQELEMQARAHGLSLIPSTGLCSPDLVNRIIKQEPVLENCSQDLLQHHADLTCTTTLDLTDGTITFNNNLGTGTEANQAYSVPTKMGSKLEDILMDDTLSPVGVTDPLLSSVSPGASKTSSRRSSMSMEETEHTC

Only a part is listed here, and it is no random draw. Active and inactive are the calls of the source. Cut-off read from the data, not from the text of the source: active = inhibition above about 50%; inactive = the rest.

The target in this experiment is Microphthalmia-associated transcription factor (Homo sapiens) (UniProt O75030). Description: MITF inhibitors, primary screen, biochemical, AlphaScreen, human (AID 1259374).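 Note: 0% = vehicle wells with protein.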 The note with it: AlphaScreen MITF homodimerization, bead proximity signal; at 2.6 µM; hits give high values.
For the molecule `O=[N+]([O-])c1ccc(Nc2ccc([N+](=O)[O-])cc2[N+](=O)[O-])c(O)c1`, the inhibition is inactive: 8.5%.

For `CCOP1(=O)Oc2ccccc2OC1c1ccccc1` (centres undefined), the inhibition was inactive: -5.95%.

For the molecule `NC(=O)COC(=O)C1(O)c2ccccc2-c2ccccc21`, the inhibition is inactive: 4.73%.

Consider `O=P(Nc1nccs1)(Oc1ccccc1)Oc1ccccc1`, for which the inhibition is inactive: 17.5%.

For `O=P(Nc1nccs1)(c1ccccc1)c1nc2ccccc2s1` (centres undefined), the inhibition was inactive: 49.2%.

In the case of `CCOc1ccc2nc(NCCCl)[nH]c2c1`, the inhibition is inactive: 1.02%.

Take `CC(=O)NC(SC1=NCCS1)C(Cl)(Cl)Cl` (centres undefined): the inhibition is inactive: 11.2%.

On to `O=P(Nc1ccccn1)(c1ccccc1)c1ccccc1`, for which the inhibition is inactive: -7.07%.

As to `Cn1cnc([N+](=O)[O-])c1SCCCl`, the inhibition is inactive: 0.95%.

Take `CCSP(=O)(c1ccccc1)c1ccccc1`: the inhibition was inactive: 7.16%.

Consider `COP(=O)(OC)Oc1c(Cl)c(Cl)c(O)c(Cl)c1Cl`, for which the inhibition is inactive: 14.5%.

In the case of `CC(=Nc1cc([N+](=O)[O-])ccc1C)NNc1ccc([N+](=O)[O-])cc1[N+](=O)[O-]`, the inhibition is inactive: -10%.

With `O=[N+]([O-])c1ccc(N/N=C/c2ccc([N+](=O)[O-])s2)c([N+](=O)[O-])c1`, the inhibition is inactive: -6.45%.

For the molecule `O=[N+]([O-])c1ccc(NCCN(CCO)c2ccc([N+](=O)[O-])cc2[N+](=O)[O-])c(Cl)c1`, the inhibition is inactive: 1.81%.

Turning to `COc1cc([N+](=O)[O-])cc([N+](=O)[O-])c1OCC(=O)N/N=C/c1ccc([N+](=O)[O-])o1`, the inhibition was inactive: 1.79%.

Regarding `CCCCOP(=O)(Nc1cccc(F)c1)OCCCC`, the inhibition is inactive: -2.81%.

Take `CC1(C)COP(=S)(N(C2=NCCC2)c2ccccc2)OC1`: the inhibition was inactive: 12.2%.

For the molecule `CC(C)OP(=O)(Nc1ccc(Br)cc1)OC(C)C`, the inhibition was inactive: 1.46%.

For `O=C(Nc1cccc(F)c1)N(Cc1cccnc1)C1CCN(CCc2ccccn2)CC1`, the inhibition is inactive: 9.65%.

`Cc1c(N=Cc2ccc([N+](=O)[O-])cc2)cc([N+](=O)[O-])cc1[N+](=O)[O-]`: the inhibition was inactive: 9.05%.

As for `O=[N+]([O-])c1ccc2c(c1)/C(=N\O)c1cc([N+](=O)[O-])cc([N+](=O)[O-])c1-2`, the inhibition is inactive: 2.4%.

`N#Cc1cccc(C(=O)N(Cc2ccco2)C2CCN(CCc3ccccn3)CC2)c1`: the inhibition was inactive: -11.2%.

For `Cc1n[n+]2c([nH]c1=O)SCC(Br)C2c1ccccc1` (centres undefined), the inhibition was inactive: 7.34%.

Consider `Cc1nn(-c2ccccc2)c2c1P(=O)(N1CCOCC1)N(C)C(c1ccccc1)=N2` (centres undefined), for which the inhibition is inactive: 5.67%.

As to `CC(C)NC(=O)N(Cc1cccnc1)C1CCN(CCc2ccccn2)CC1`, the inhibition is inactive: 12.4%.

For `COc1ccccc1NC1=NCC(CBr)S1` (centres undefined), the inhibition was inactive: -2.54%.

In the case of `O=C(/C=C/c1ccccc1)OC1CN2CCC1CC2` (centres undefined), the inhibition was inactive: -1.67%.

As to `O=C(O)C(Cl)CSc1nc2ccccc2o1` (centres undefined), the inhibition was inactive: -9%.

In the case of `COCCN(CCOC)C(=O)COC(=O)C(O)(c1ccccc1)c1ccccc1`, the inhibition was inactive: 4.16%.

Regarding `CN(C)C1(CNC(=O)c2ccc(S(C)(=O)=O)cc2)CCCCC1`, the inhibition is inactive: -5.69%.

Take `O=C(Cc1ccc(F)cc1)N(Cc1ccco1)C1CCN(CCc2ccccn2)CC1`: the inhibition was inactive: 2.7%.

Take `CCc1cccc(NC(=O)Oc2c([N+](=O)[O-])cc([N+](=O)[O-])cc2[N+](=O)[O-])c1`: the inhibition was inactive: 11.8%.

In the case of `O=C(c1ccco1)N(Cc1cccnc1)C1CCN(CCc2ccc(Cl)cc2)CC1`, the inhibition is inactive: -5.37%.

Consider `COc1cc([N+](=O)[O-])cc([N+](=O)[O-])c1N/N=C(/C)c1cccc([N+](=O)[O-])c1`, for which the inhibition was inactive: -19.9%.

In the case of `CC(Cl)(CSSCC(C)(Cl)C(=O)O)C(=O)O` (centres undefined), the inhibition is inactive: 6.78%.

As to `CC1(CBr)Cn2c(nc3ccccc3c2=O)S1` (centres undefined), the inhibition is inactive: 12.5%.

With `COC(=O)c1nsnc1NCCCl`, the inhibition was inactive: 2.64%.

Take `Cc1ccc(S(=O)(=O)NCCCCC(NC(=O)OC(C)(C)C)C(=O)O)cc1` (centres undefined): the inhibition is inactive: 9.24%.

As to `COC(=O)c1cc([N+](=O)[O-])c(Nc2ccc([N+](=O)[O-])cc2Br)c([N+](=O)[O-])c1`, the inhibition was inactive: 12.3%.

Consider `O=C(Nc1ccc(Br)cc1[N+](=O)[O-])c1cc([N+](=O)[O-])cc([N+](=O)[O-])c1`, for which the inhibition is inactive: 29.5%.

On to `CCCCC(NC(=O)OC(C)(C)C)C(=O)O` (centres undefined), for which the inhibition was inactive: -6.64%.

Regarding `CCOP(=O)(CN)OCC`, the inhibition was active: 55.5%.

Take `CN(CCCl)Cc1cc(Cl)c(NC2=NCCN2)c(Cl)c1`: the inhibition is inactive: 3.25%.

As to `O=P1(Nc2ccccn2)COc2ccccc2OC1`, the inhibition is inactive: -4.41%.

For `O=[N+]([O-])c1cc([N+](=O)[O-])c(N2CCCCC2)c([N+](=O)[O-])c1`, the inhibition was inactive: 23.1%.

In the case of `CCOc1ccc(NC(=O)c2ccc([N+](=O)[O-])cc2[N+](=O)[O-])c([N+](=O)[O-])c1`, the inhibition is inactive: 16.8%.

As for `COc1ccc2nc(SCc3ccc(C(=O)O)cc3)[nH]c2c1`, the inhibition is inactive: 4.65%.

As for `COc1cccc(OP(=O)(Nc2ccccn2)Oc2cccc(OC)c2)c1`, the inhibition was inactive: 2.38%.

Consider `CCOP(=O)(NC(=NC(C)c1ccccc1)NC(C)c1ccccc1)OCC` (centres undefined), for which the inhibition was inactive: -4.84%.

For `n1[nH]nc2c1c1n[nH]nc1c1n[nH]nc21`, the inhibition was inactive: 28.6%.

Turning to `CCOc1ccc(NP2(=O)C=C(Cl)N(C)C(=O)N2C)cc1` (centres undefined), the inhibition was inactive: 13.4%.

Turning to `CC(C)(C)C(=O)NC(Sc1ncccn1)C(Cl)(Cl)Cl` (centres undefined), the inhibition is inactive: 3.86%.

With `O=P(/C=C(\Cl)c1ccccc1)(/C=C(\Cl)c1ccccc1)Nc1nncs1`, the inhibition was inactive: 8.26%.

In the case of `CC(C)NC(=O)N(Cc1ccco1)C1CCN(CCc2cccs2)CC1`, the inhibition was inactive: 6.21%.

As for `O=C(Nc1cccc(F)c1)N(Cc1ccco1)C1CCN(CCc2ccccn2)CC1`, the inhibition is inactive: 9.15%.

With `O=C(Nc1c(Cl)cc([N+](=O)[O-])cc1[N+](=O)[O-])c1ccc([N+](=O)[O-])cc1`, the inhibition is inactive: -12.3%.

On to `BrCC1Cn2c(nnc2-c2cccnc2)S1` (centres undefined), for which the inhibition was inactive: -9.5%.

As for `COc1ccc(/C=C2/C(=O)NC(=O)N(Cc3ccco3)C2=O)c(OC)c1`, the inhibition was active: 62.8%.

In the case of `O=[N+]([O-])c1ccc(N/N=C/C=C/c2ccc([N+](=O)[O-])o2)c([N+](=O)[O-])c1`, the inhibition was inactive: 28%.

Usually inhibition stands for the change of the read-out against control, counted positive when it falls.
